# HCMV NEC inh: inhibitors of HCMV UL50-UL53 nuclear egress complex interaction; HTRF UL50-UL53 interaction, normalized percent inhibition; inhibition, % (no concentration beside the values); 0.15% of 190,000 active; AID 1918969; in the data active means inhibition above about 27%, passing the limit was not always enough
# GIV Gai3 FP: inhibitors of GIV peptide binding to Galpha-i3, primary screen, biochemical, fluorescence polarization, FITC-GIV GBA peptide, rat Galphai3; 90 min; stronger effect = lower value; scaled: aluminum fluoride 0%, vehicle 100%; percent of control (FP), % (no concentration beside the values); 210,000 tested, 0.42% active; AID 1224905, 2016;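 active = replicate mean at 85% of control or lower, very high polarization wells dropped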;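 note: wells of about 15 µL received 100 nL stock; the first replicate is given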
# An asterisk follows results filed as active; . = no result. An excerpt weighted towards active compounds, which were near 0.43% of everything screened.
SMILES,HCMV NEC inh,GIV Gai3 FP
O=c1oc2cc(O)ccc2cc1-c1nnc(NCc2ccccc2)s1,.,-32*
O=C(Oc1ccc2cc(-c3ccc(F)cc3)c(=O)oc2c1)c1ccco1,-16,108
COc1cccc(Nc2nnc(-c3cc4ccc(O)cc4oc3=O)s2)c1,.,-69*
O=c1[nH]cnc2c(-c3cccc(Cl)c3)csc12,6,97
COc1ccc2c(CN(C)CC(=O)Nc3ccc(N4CCOCC4)cc3)cc(=O)oc2c1,-11,.
O=C(COC(=O)c1cc(C(F)(F)F)cc(C(F)(F)F)c1)NC1CC1,-34,.
COc1ccc(NC(=O)C2CCC(=O)N2S(=O)(=O)c2ccc(F)cc2)cc1OC (stereo not drawn),-5,105
CCOc1ccc(/C=C2/C(=O)Nc3ccccc32)cc1,10,.
O=C1c2ccccc2C(=O)N1Cc1ccccc1,-14,104
CCO/C=C1\C(=O)N(C)C(=O)c2ccccc21,77*,.
CCO/C=C1/C(=O)NC(=O)c2ccccc21,98*,.
CCO/C=C1/C(=O)N(c2ccc(Cl)cn2)C(=O)c2ccccc21,-22,.

# Single records, from the list above.
# O=C1c2ccccc2C(=O)N1Cc1ccccc1 across the screens: HCMV NEC inh = -14; GIV Gai3 FP = 104
# COc1ccc(NC(=O)C2CCC(=O)N2S(=O)(=O)c2ccc(F)cc2)cc1OC (stereo not drawn) across the screens: HCMV NEC inh = -5; GIV Gai3 FP = 105
# O=C(COC(=O)c1cc(C(F)(F)F)cc(C(F)(F)F)c1)NC1CC1 across the screens: HCMV NEC inh = -34; GIV Gai3 FP = .

# An excerpt from above in order of the GIV Gai3 FP value, largest number first:
Compound	GIV Gai3 FP
COc1ccc(NC(=O)C2CCC(=O)N2S(=O)(=O)c2ccc(F)cc2)cc1OC (stereo not drawn)	105
O=C1c2ccccc2C(=O)N1Cc1ccccc1	104
O=c1[nH]cnc2c(-c3cccc(Cl)c3)csc12	97
COc1cccc(Nc2nnc(-c3cc4ccc(O)cc4oc3=O)s2)c1	-69*

# (continued)
SMILES,HCMV NEC inh,GIV Gai3 FP
CCO/C=C1/C(=O)N(Cc2ccc(OC)cc2)C(=O)c2ccccc21,57*,.
Cc1ccc(NC(=O)C2Sc3nnc(-c4ccccc4)n3NC23CCCCC3)cc1C (stereo not drawn),10,103
COC(=O)c1ccc(N2CCOCC2)c(NC(C)=O)c1,-16,109
COc1ccccc1Oc1cc(-c2cccc(C(=O)NC(C)c3ccc(C)cc3)c2)ncn1 (stereo not drawn),.,109
CCn1c(SCC(=O)NN2CC(=O)N(c3ccc(F)cc3)CC2=O)nnc1-c1cccs1,-18,104
CCN(CC)S(=O)(=O)c1ccc2[nH]c3c(c2c1)CCCC3,.,93
CC(C)c1nc(NCc2ccccc2)c(C#N)c2c1CCCC2,-8,100
N#Cc1c(NCc2ccccc2)ncc2c1Nc1ccccc1C2,-20,73*
CCOC(=O)c1ccc2c(c1)N(CCCS(=O)(=O)O)/C(=C/C=C/c1n(CCCS(=O)(=O)[O-])c3cc(C(=O)OCC)ccc3[n+]1CC)N2CC,.,-62*
CCOC(=O)c1ccc2c(c1)n(CCCS(=O)(=O)[O-])c(/C=C/C=C1\N(CC)c3cc(Cl)c(Cl)cc3N1CCOc1ccccc1)[n+]2CC,.,112
Cn1nc(C(=O)N2CCCC(C(=O)NC3CC3)C2)c2c1CCN(C(=O)COc1ccccc1)C2 (stereo not drawn),.,97
O=c1oc2ccccc2nc1/C=C(\O)c1cccs1,-24,-69*
O=C(c1ccccc1)c1nc2ccccc2oc1=O,-12,.
COc1cc(C=C2C(=O)NC(=O)NC2=O)cc(Br)c1OCCOc1ccccc1,82*,105
CCOc1cc(C=C2C(=O)NC(=O)NC2=O)cc(Br)c1OCCOc1ccccc1,-15,108
COc1ccccc1OCCOc1c(Br)cc(C=C2C(=O)N(C)C(=O)N(C)C2=O)cc1OC,77*,106
COc1cc(C=C2C(=O)NC(=O)NC2=O)cc(Cl)c1OS(=O)(=O)c1ccccc1,60*,104
COc1cc(C=C2C(=O)NC(=S)NC2=O)cc(Cl)c1OCCOc1cccc(C)c1,7,111
COc1cc(C=C2C(=O)N(C)C(=O)N(C)C2=O)cc(Br)c1OCCOc1ccccc1,-7,106
Cc1ccc(C(c2c(C)n(C)n(-c3ccccc3)c2=O)c2c(C)n(C)n(-c3ccccc3)c2=O)cc1,.,105
CC(=O)n1c(SCC(=O)Nc2ccc(C(C)C)cc2)nc2ccccc21,.,109
CCN(CC)Cc1cc(C(C)(C)C)oc1C(=O)O,-13,.
CCc1ccc2c(c1)[C@H]1OCCC[C@H]1C(c1ccncc1)N2 (stereo partly drawn),.,98
COC(=O)C1=C(C)OC(N)=C(C#N)C1c1ccccc1Cl (stereo not drawn),.,110
O=C(O)COc1ccc2c(c1)C(=O)c1cc(OCC(=O)O)ccc1-2,-57,84*
O=C(O)COc1ccc2c(c1)C(=NO)c1cc(OCC(=O)O)ccc1-2,.,106
COc1cccc(Nc2c(C(=O)N3CCOCC3)cnc3ccccc23)c1,-9,103
C=C[n+]1ccn(-c2nc3ccccc3nc2[N-]S(=O)(=O)c2ccccc2)c1,-10,.
COc1ccc(/C=C2\C=C(c3ccccc3)N(c3ccc4ncccc4c3)C2=O)cc1Br,.,117
O=C(Cc1noc2ccccc12)N1CCc2ccccc21,-9,104
O=C(O)c1ccc2ncsc2c1,71*,.
O=C(c1ccc2ncsc2c1)N1CCCCC1,13,.
Cc1ccc(Cl)cc1NC(=O)CCc1nc(-c2ccc(S(=O)(=O)N3CCCC3)cc2)no1,.,104
CCOc1cc(C=C2C(=O)N(C)C(=O)N(C)C2=O)ccc1OCCOc1ccc([N+](=O)[O-])cc1,55*,103
CCOc1cc(C=C2C(=O)N(C)C(=O)N(C)C2=O)ccc1OCCOCCOc1ccc(C)cc1,10,105
O=C(O)CCC/C=C\C[C@@H]1[C@@H](/C=C/C(=O)CCc2ccccc2)[C@H](O)C[C@@H]1O,-26,.
CN(C)c1ccc(/C=C2/SC(=S)N(CC(=O)O)C2=O)cc1,-20,-61*
O=C(O)CN1C(=O)/C(=C\c2ccc(O)cc2)SC1=S,-124,196
CCOC(=O)C1=C(c2ccccc2)OC(N)=C(C#N)C1c1cc2ccccc2nc1Cl (stereo not drawn),.,110
O=C1NC(=Nc2ccc(F)cc2)S/C1=C/c1ccc(N2CCCCCC2)o1,-28,-78*
O=C1NC(=Nc2ccc(F)cc2)S/C1=C/c1ccc(N2CCCC2)o1,-22,.
Cc1c(C(=O)Nc2ccccc2C(F)(F)F)sc2nc(SCC(=O)C(C)(C)C)n(CCc3ccccc3)c(=O)c12,.,111
COc1cc(C2CC(=O)Nc3ccc4ccccc4c32)ccc1OCc1ccccc1 (stereo not drawn),.,105
CCNc1cc(N2CCCCCC2)c2noc3c2c1C(=O)c1ccccc1-3,-69,-20*
CCOC(=O)C1CCN(c2cc(NCC(=O)O)c3c4c(onc24)-c2ccccc2C3=O)CC1,-131,-57*
CCN1CCN(c2cc(NCC(=O)O)c3c4c(onc24)-c2ccccc2C3=O)CC1,-72,108
O=C1c2ccccc2-c2onc3c(Br)cc(NCc4ccccc4)c1c23,.,-21*
CCNc1ccc2noc3c2c1C(=O)c1ccccc1-3,-188,-48*
Cc1cccc(Nc2cc(NCc3ccccc3)c3noc4c3c2C(=O)c2ccccc2-4)c1,.,109
CC(C)CNc1cc(N2CCCC2)c2noc3c2c1C(=O)c1ccccc1-3,-35,133
CCNc1cc(NCC)c2noc3c2c1C(=O)c1ccccc1-3,-41,207
O=c1nc2c(S(=O)(=O)O)ccc3c2=c(/c1=C(\O)c1ccccc1)c1ccccc1c3=O,.,95
CCN(CC)c1ccc(C(=O)OCC(=O)N2CCc3ccccc32)cc1,-16,.
COc1ccc(CNC(=O)c2cnc(OC)cc2C(F)(F)F)cc1,-6,104
CCOC(=O)N1CCN(c2cc(NCCC(=O)O)c3c4c(onc24)-c2ccccc2C3=O)CC1,.,-79*
O=C(O)CCCNc1cc(N2CCCC2)c2noc3c2c1C(=O)c1ccccc1-3,-30,111
CCCCNc1cc(N2CCN(C3CCCCC3)CC2)c2noc3c2c1C(=O)c1ccccc1-3,-43,229
CCOC(=O)N1CCN(c2cc(NCCCC(=O)O)c3c4c(onc24)-c2ccccc2C3=O)CC1,-210,-74*
Cc1nn(C(=O)Nc2ccccc2Br)c2ccccc12,-29,102
